Measured values from patent publication US5783179A, “C-reactive protein fragment with immunomodulatory activity” (Syntex (U.S.A.) Inc., priority 1991, dated 1998).

Test system: T241 fibrosarcoma
Test: Survival studies with T241 fibrosarcoma
Format: in vivo, mice
Details: 90 days after tumor implantation; groups of 30 animals; treatment after removal of primary tumor at day 17
Description: The experimental protocol for these studies was similar to that of Example 3, with the exception that animals were observed over a period of 90 days following tumor implantation. Animals dying during that period were examined for lung metastases. At Day 90, all the surviving animals were killed and then examined for lung metastases.
Animals were treated following removal of primary tumors 17 days after tumor implantation. Treatments consisted of: 1) No treatment; 2) MLV containing synthetic CRP peptide (SEQ ID No:1) (2.5 μmoles lipid containing 0.25 μg peptide, i.v. 3 times per week for 2 weeks); 3) soluble rIL-2 (10,000 U i.p. 5 consecutive times per week for 16 days for a total of 12 injections); and 4) regimens 2 and 3 together. Data represent percentage survival for groups of 30 animals at 90 days. CRP-Peptide MLV+rIL-2 vs all other groups, p=0.0001. CRP-peptide MLV vs control, p=0.0001 (Logrank Test).

regimen 3: soluble recombinant interleukin-2 (Cetus Corp.), 10,000 U i.p., 12 injections
percentage survival through the 90-day period: 17%
